{"source": "patent US20240374724A1", "about": "“ENPP1 INHIBITORS AND IMMUNE CELLS EXPRESSING CHIMERIC ANTIGEN RECEPTORS” (Angarus Therapeutics, Inc., priority 2021, published 2024)", "tested_on": "4T1-luciferase tumor", "experiment": "4T1-luciferase tumor model: IR with compound 1, cGAMP and/or anti-CTLA-4; tumor volume and survival", "format": "in vivo, Balb/c mice", "conditions": "20 Gy IR + compound 1 in addition to cGAMP, intratumoral", "data": [{"smiles": "COc1cc2ncnc(N3CCC(CCP(=O)(O)O)CC3)c2cc1OC", "note": "[compound 1]", "values": [{"measurement": "cure rate", "value": 10, "unit": "%"}]}]}
